According to patent publication US10307371B2 (AI Therapeutics, Inc., priority 2014, dated 2019):

Tested on: mTOR
Assay: S6 phosphorylation in mouse lung as biomarker for mTOR activity
Conditions: 1 mg/kg

CO[C@H]1C[C@@H]2CC[C@@H](C)[C@@](O)(O2)C(=O)C(=O)N2CCCC[C@H]2C(=O)O[C@H]([C@H](C)C[C@@H]2CC[C@@H](O)[C@H](OC)C2)CC(=O)[C@H](C)/C=C(\C)[C@@H](O)[C@@H](OC)C(=O)[C@H](C)C[C@H](C)/C=C/C=C/C=C/1C [Rapamycin, (3S,6R,7E,9R,10R,12R,14S,15E,17E,19E,21S,23S,26R,27R,34aS)-9,10,12,13, -14,21,22,23,24,25,26,27,32,33,34,34a-hexadecahydro-9,27-dihydroxy-3-[(1R)-2-[(1S,3R,4R)-4-hydroxy-3-methoxycyclohexyl]-1-methylethyl]-10,21-dimethox-y-6,8,12,14,20,26-hexamethyl-23,27-epoxy-3H-pyrido[2,1-c][1,4]oxaazacyclohentriacontine-1,5,11,28,29(4H,6H,31H)-pentone]
Level of phosphorylated S6 (pS6) in lung tissue (OPA, 1 hr, versus vehicle): reduced substantially | Level of phosphorylated S6 (pS6) in lung tissue (OPA, 72 hr): remained suppressed | Level of phosphorylated S6 (pS6) in lung tissue (oral gavage, 1 hr, versus vehicle): reduced substantially
